Earlier results on one compound are cited in patent US7371751B2, “Thiazole derivatives” (Hoffmann-La Roche Inc., priority 2003, dated 2008).

Sequences of proteins named here, by UniProt entry; tags and fusion partners are left off.
UniProt P47746, whole entry: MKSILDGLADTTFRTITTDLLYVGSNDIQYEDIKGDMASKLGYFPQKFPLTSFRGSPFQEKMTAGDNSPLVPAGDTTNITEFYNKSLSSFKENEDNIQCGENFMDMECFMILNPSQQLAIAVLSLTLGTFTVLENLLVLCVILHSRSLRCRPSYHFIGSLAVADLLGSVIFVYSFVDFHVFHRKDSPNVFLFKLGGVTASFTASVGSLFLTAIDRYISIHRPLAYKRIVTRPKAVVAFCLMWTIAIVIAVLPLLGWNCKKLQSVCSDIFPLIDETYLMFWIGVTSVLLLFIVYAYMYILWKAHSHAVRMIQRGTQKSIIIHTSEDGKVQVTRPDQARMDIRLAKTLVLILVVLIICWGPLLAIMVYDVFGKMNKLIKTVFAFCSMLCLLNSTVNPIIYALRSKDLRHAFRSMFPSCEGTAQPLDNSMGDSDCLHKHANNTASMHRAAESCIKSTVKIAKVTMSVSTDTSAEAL

Each structure is given as a SMILES string.

This series has as its target CB1 receptor (Mus musculus, UniProt P47746). The following applies: wild-type versus CB1 receptor knockout mice; cited from earlier work.

In the case of `Cc1c(C(=O)NN2CCCCC2)nn(-c2ccc(Cl)cc2Cl)c1-c1ccc(Cl)cc1` [SR 141716], the food intake entry is “reduces food intake in wild-type but not knockout mice”.
